Measured values as given in patent US10308916B2, “Omega-transaminase mutants with activity improvements toward ketones and methods for producing optically pure amines” (Industry-Academic Cooperation Foundation, Yonsei University, priority 2015, dated 2019).

Each molecule was assayed against T1, OATA W58L (Brucella anthropi, UniProt A6WVC6, W58L). Settings: second value of cell.

| Compound | kcat, OATAW58L |
| --- | --- |
| C[C@H](N)c1ccccc1 [(S)-α-methylbenzylamine] | 24000, 20000 ×10^−3 s^−1 |
| CC(C)N [Isopropylamine] | 9700, 9300 ×10^−3 s^−1 |
| CC(=O)c1ccccc1 [Ketone 1a, acetophenone] | 9.7, 540 ×10^−3 s^−1 |
| CC(=O)C(=O)O [pyruvate, pyruvic acid] | 2600, 19000 ×10^−3 s^−1 |

The molecules below were run against T1, OATA W58L. Settings: isopropylamine as amino donor.

| Compound | Reaction rate OATAWSBL [μm/h] |
| --- | --- |
| O=C1CCc2ccccc21 | 7.6 ± 0.1 |
| O=C1CCCc2ccccc21 | 2.1 ± 0.1 |
